Results as given in patent US20060019945A1, “Granzyme b inhibitors” (priority 2002, published 2006).

Amino acid sequences for entries named in this document (tags omitted). Residues count along the entry.
UniProt P10144, 21-247 limits assumed: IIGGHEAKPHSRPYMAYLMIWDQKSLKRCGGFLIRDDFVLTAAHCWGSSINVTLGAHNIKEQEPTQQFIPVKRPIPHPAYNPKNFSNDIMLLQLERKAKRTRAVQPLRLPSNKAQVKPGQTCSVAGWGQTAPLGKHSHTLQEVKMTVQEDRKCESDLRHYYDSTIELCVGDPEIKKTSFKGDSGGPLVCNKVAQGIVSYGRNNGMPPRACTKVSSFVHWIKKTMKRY

Target: human granzyme B (Homo sapiens, UniProt P10144)
Experiment: Fluorogenic assay for granzyme B (Ac-IEPD-AMC substrate)
Type: biochemical
Details: read-out: Gzm B Ki; recombinant granzyme B, substrate Ac-IEPD-AMC 10 μM, pH 7.5, 25° C.
Source text: Plasmids pMelBac and the TA Cloning Kit (pCR2.1) were purchased from Invitrogen (Carlsbad, Calif.). The Bac-to-Bac Baculovirus Expression System and all cell culture supplies were from Life Technologies (Gaithersburg, Md.). The human granzyme B protease has been identified and is known in the art. See, for example, Poe, et al., J. Biol. Chem. 266, 98-103. A vector was generated for secreted protein expression in the Bac-to-Bac system. The honeybee melittin secretion signal was amplified from pMelBac by PCR with primers 5′-GTGT AGATCTATGAAATTCTTAGTCAACG-3′ and 5′-TTCAGCAGAGTCGACTCCAAG-3′. The amplified product contained a BglII site upstream of the melittin secretion signal and spanned the multiple cloning site of the vector. The fragment was digested with BglII and EcoRI and subcloned into BamHI and EcoRI digested pFastBac. The resulting vector was designated pSecBac. Activatable tagged human granzyme B was cloned into pSecBac in two sequential steps. […] The sample was readjusted to a final pH 8.0, CaCl2 (3 mM final concentration) and factor Xa (Pharmacia, 10 units per mg of protein) were added, and incubated for 18 hours at room temperature to generate active granzyme B. Under these conditions, complete cleavage is achieved. […]

## CC[C@H](C)[C@H](NC(=O)Cc1ccccc1)C(=O)N[C@H]1CCc2cccc3c2N(C1=O)[C@H](C(=O)NCc1nn[nH]n1)C3
  Ki: 22 nM
